Values quoted from earlier work, collected in PMC11284800 (Journal of Medicinal Chemistry, 2024).

Test system: CB1R
Parameters: method as in PMID 8070571, PMID 27240274, PMID 24175572
Settings: cited from earlier work

Cc1c(C(=O)NN2CCCCC2)nn(-c2ccc(Cl)cc2Cl)c1-c1ccc(Cl)cc1 [Compound 6, Rimonabant]
Functional profile at CB1R (in words): inverse agonist
